The assay has as its target T1, Acyl-CoA:cholesterol acyltransferase (Oryctolagus cuniculus, UniProt Q95214).
T1 sequence (Q95214 whole entry): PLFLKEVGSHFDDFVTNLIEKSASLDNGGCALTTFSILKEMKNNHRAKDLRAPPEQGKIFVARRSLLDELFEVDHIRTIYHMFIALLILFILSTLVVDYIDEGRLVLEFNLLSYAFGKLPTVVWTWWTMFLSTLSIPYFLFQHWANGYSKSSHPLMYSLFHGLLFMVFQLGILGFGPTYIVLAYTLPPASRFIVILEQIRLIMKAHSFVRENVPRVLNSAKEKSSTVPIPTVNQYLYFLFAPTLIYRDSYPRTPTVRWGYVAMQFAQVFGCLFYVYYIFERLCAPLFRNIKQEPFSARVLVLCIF
The assay can be described thus: In vitro inhibition of ACAT by incubation with [1-14C]oleolyl-CoA and intestinal microsomes isolated from cholesterol-fed rabbits. Details: species or system Intestine.
Turning to `CCCCCCCCN(CCCCCCCC)C(=O)CS(=O)(=O)Nc1c(C(C)C)cccc1C(C)C`, it took 4200 nM to reach half-maximal inhibition (IC50). As to `CCCCCCCCCCCCCCOC(=O)CS(=O)(=O)Nc1c(C(C)C)cccc1C(C)C`, half-maximal inhibition (IC50) was put at 230 nM. Regarding `CCCCCCCCCCCCOC(=O)CS(=O)(=O)Nc1c(C(C)C)cccc1C(C)C`, the 50% inhibitory concentration (IC50) was 110 nM.

As usually defined, the IC50 is the concentration needed to halve the response being measured. Lower therefore signals greater potency.
